Assay results published in article PMC3893891 (Journal of biomolecular screening, 2012).

Each compound was assayed against T1, Eya2 ED (Homo sapiens, UniProt O00167). Settings: OMFP substrate.
T1 sequence (O00167 253-538): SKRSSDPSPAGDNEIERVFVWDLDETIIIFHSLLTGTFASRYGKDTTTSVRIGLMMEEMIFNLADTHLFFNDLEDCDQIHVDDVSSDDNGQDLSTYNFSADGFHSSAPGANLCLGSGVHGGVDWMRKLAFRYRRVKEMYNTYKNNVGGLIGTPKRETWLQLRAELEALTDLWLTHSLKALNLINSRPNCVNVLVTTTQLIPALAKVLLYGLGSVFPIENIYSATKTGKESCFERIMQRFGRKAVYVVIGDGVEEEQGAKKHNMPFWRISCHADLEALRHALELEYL

inhibition of Eya2 ED phosphatase activity (in words) | Structure (SMILES)
inactive | N[C@@H](Cc1ccccc1)C(=O)O [L-phenylalanine]
inactive | c1cnc2c(c1)ccc1cccnc12 [1,10-phenanthroline]
inhibit | O=C(O)CN(CCN(CC(=O)O)CC(=O)O)CC(=O)O [EDTA]
